US11466067B2 (priority 2019, dated 2022)

Legend:
Details in all cases: mouse, in vivo
circulating cytokines = test system: circulating cytokines
[1] = test system: oxazolone-induced colitis
IL-1Ra = test system: IL-1Ra; set-up: species or system mice

## Nc1ccc(O)c(C(=O)O)c1 [5-ASA, 5-aminosalicylic acid, reference compound]
Circulating cytokines
  oxazolone induction of plasma IL-6 and IL-23: Suppression of the trend
[1]
  histopathological severity score of colon: but not 5-ASA treatment
IL-1Ra
  circulating IL-1Ra: not significantly altered
